From article PMC4420714 (Peptides, 2015)

Chains of the proteins cited; added tags and fusions are not shown. Residues count along the entry.
UniProt P32241, 31-457, species assumed: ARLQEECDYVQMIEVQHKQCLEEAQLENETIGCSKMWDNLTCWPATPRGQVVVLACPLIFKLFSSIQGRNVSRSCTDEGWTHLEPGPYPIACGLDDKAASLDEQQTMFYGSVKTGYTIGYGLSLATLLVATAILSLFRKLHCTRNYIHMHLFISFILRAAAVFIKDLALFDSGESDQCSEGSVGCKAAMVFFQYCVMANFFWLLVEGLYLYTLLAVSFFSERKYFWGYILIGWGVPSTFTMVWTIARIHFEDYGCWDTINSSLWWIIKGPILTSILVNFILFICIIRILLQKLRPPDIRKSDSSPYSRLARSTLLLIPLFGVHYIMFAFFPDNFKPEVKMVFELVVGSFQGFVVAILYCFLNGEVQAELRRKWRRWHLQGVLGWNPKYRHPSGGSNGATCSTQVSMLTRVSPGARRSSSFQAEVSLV

Experiments:
PAC1-R [1] = molecular target: T1, PAC1-R (Homo sapiens, UniProt P41586); assay: Binding of 125I-PACAP27 to PAC1-R stably transfected NIH 3T3 cells; conditions: for decrease in affinity for PAC1-R cells compared to native PACAP38 (or PACAP27): ratio of binding IC50, analog vs native parent peptide; for lower affinity for PAC1-R cells than VPAC2-R/PANC-1 cells: binding IC50 ratio, VPAC2-R preferring
T1 sequence (P41586 21-468): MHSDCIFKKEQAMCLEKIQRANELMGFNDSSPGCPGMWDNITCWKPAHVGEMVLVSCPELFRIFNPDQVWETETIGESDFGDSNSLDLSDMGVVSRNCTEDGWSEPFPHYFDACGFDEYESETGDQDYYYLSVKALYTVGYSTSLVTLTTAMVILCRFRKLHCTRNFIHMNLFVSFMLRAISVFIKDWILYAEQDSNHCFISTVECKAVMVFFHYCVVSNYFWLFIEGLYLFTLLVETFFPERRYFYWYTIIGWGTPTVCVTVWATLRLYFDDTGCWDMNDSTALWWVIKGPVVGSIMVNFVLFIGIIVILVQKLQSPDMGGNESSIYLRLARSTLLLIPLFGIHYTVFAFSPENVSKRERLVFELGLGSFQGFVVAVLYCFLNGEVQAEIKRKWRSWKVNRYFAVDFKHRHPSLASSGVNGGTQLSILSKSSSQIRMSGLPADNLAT

VPAC2-R [2] = molecular target: T2, VPAC2-R (Homo sapiens, UniProt P41587); assay type: binding; conditions: read-out: IC50 VPAC2-R, Sup-T1; Sup-T1 cells, 75 pM 125I-Ro 25-1553, 37°C
T2 sequence (P41587 24-438): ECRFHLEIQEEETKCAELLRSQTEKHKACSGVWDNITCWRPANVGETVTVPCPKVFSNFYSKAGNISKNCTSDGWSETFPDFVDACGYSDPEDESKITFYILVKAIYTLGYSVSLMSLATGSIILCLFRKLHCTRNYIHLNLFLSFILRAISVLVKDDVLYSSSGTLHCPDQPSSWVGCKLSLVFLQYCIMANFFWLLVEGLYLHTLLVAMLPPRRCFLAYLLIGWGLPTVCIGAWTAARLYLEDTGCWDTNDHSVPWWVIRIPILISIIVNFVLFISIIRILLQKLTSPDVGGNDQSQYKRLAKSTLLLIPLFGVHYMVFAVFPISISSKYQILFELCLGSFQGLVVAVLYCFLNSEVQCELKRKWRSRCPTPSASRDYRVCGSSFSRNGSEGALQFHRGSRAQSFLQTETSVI

VPAC1-R [3] = molecular target: T3, VPAC1-R (Homo sapiens, UniProt P32241); assay: Binding of 125I-VIP to VPAC1-R/PANC-1 cells; conditions: ratio of binding IC50, analog vs native parent peptide
VPAC1-R [4] = molecular target: T3, VPAC1-R; assay: [3H]cAMP generation in T47D cells; assay type: cell-based; conditions: T47D cells; for [3H]cAMP T47D % max (agonist class): relative to PACAP38, up to 1 µM; for EC50: read-out: [3H]cAMP T47D EC50
PAC1-R [5] = molecular target: T1, PAC1-R; assay: [3H]cAMP generation in PAC1-R cells; assay type: cell-based; conditions: for greater affinity than potency, PAC1-R cells: EC50 cAMP over binding IC50; for higher potency for PAC1-R cells compared to VPAC1-R/PANC-1 cells / higher potency for PAC1-R cells compared to VPAC2-R/PANC-1 cells: cAMP generation EC50 ratio; for EC50: read-out: [3H]cAMP PAC1-R EC50; for EC50 / [3H]cAMP PAC1-R % max (agonist class): PAC1-R cells; for [3H]cAMP PAC1-R % max (agonist class): relative to maximal stimulation by PACAP38, up to 1 µM
VPAC2-R [6] = molecular target: T2, VPAC2-R; assay: [3H]cAMP generation in VPAC2-R/PANC-1 cells; assay type: cell-based; conditions: read-out: [3H]cAMP VPAC2-R/PANC-1 EC50; VPAC2-R/PANC-1 cells
VPAC1-R [7] = molecular target: T3, VPAC1-R; assay: [3H]cAMP generation in VPAC1-R/PANC-1 cells; assay type: cell-based; conditions: for greater affinity than potency for stimulating cAMP generation, VPAC1-R/PANC-1 cells: EC50 cAMP over binding IC50; for [3H]cAMP VPAC1-R/PANC-1 % max (agonist class): relative to PACAP38, up to 1 µM; for EC50: read-out: [3H]cAMP VPAC1-R/PANC-1 EC50

Substance	decrease in affinity for PAC1-R cells compared to native PACAP38 (or PACAP27) (PAC1-R [1])	IC50 (VPAC2-R [2]) [nM]	decrease in affinity for VPAC1-R/PANC-1 cells compared to native PACAP38 (or PACAP27, VIP) (VPAC1-R [3])	[3H]cAMP T47D % max (agonist class) (VPAC1-R [4])	EC50 (VPAC1-R [4]) [nM]	greater affinity than potency, PAC1-R cells (PAC1-R [5])	higher potency for PAC1-R cells compared to VPAC1-R/PANC-1 cells (PAC1-R [5])	higher potency for PAC1-R cells compared to VPAC2-R/PANC-1 cells (PAC1-R [5])	EC50 (PAC1-R [5]) [nM]	EC50 (VPAC2-R [6]) [nM]	greater affinity than potency for stimulating cAMP generation, VPAC1-R/PANC-1 cells (VPAC1-R [7])	[3H]cAMP VPAC1-R/PANC-1 % max (agonist class) (VPAC1-R [7]; VPAC1-R/PANC-1 cells)	EC50 (VPAC1-R [7]; VPAC1-R/PANC-1 cells) [nM]	[3H]cAMP PAC1-R % max (agonist class) (PAC1-R [5])	lower affinity for PAC1-R cells than VPAC2-R/PANC-1 cells (PAC1-R [1])	[3H]cAMP T47D % max, agonist activity at 1 µM, still increasing (VPAC1-R [4])	higher affinity (selectivity) for PAC1-R cells over VPAC2-R/PANC-1 cells (PAC1-R [1]; IC50 VPAC2-R/PANC-1 divided by IC50 PAC1-R, binding)	[3H]cAMP T47D % max of partial agonist (VPAC1-R [4]; partial agonist maximum)	[3H]cAMP VPAC1-R/PANC-1 % max of partial agonist (VPAC1-R [7]; VPAC1-R/PANC-1 cells, partial agonist maximum)
[Pro^3]PACAP38 [Peptide P18]	100–300 fold	229 ± 13	100–500 fold	No Act	> 1000	1.2- to 64 fold	16–50 fold	22–55 fold	129 ± 6	> 1000	1.2–65.2 fold	Ag (1 µM, 40)	> 1000						
[Ala^15,17,Aib^16,28,Lys^34,D-Lys^38]PACAP38 [Peptide P32]	> 350 fold	42.7 ± 1.1	30-to-100 fold		30.2 ± 2.9			5 fold	1.38 ± 0.07	7.41 ± 0.39			1.95 ± 0.16						
[Pip^3]PACAP38 [Peptide P26]	100–300 fold	257 ± 4	100–500 fold	No Act	> 1000	1.2- to 64 fold			> 1000	> 1000	1.2–65.2 fold	no agonist activity; also recorded: No Act	> 1000	no agonist activity; also recorded: inactive; also recorded: No Act					
[Iaa^1,D-Ala^2,Ala^22]PACAP38 [Peptide P51]	100–300 fold	162 ± 10	30-to-100 fold		7.1 ± 0.47		2-to-5 fold	12–140 fold	9.12 ± 0.67	323 ± 20			20.4 ± 1.5		2–9 fold				
[Pip^3,Aib^16,28,Ala^17,Lys^34,D-Lys^38]PACAP38 [Peptide P35]	> 1,000 fold	660 ± 20	180-to-620 fold	No Act	> 1000		6–15 fold	7-to-15 fold	407 ± 20	> 1000	1.2–65.2 fold	Ag (1 µM, 48)	> 1000	Ag (1 µM, 81)	2–4 fold				
[Pip^3,Aib^16,28,Ala^17,21,Lys^34,D-Lys^38]PACAP38 [Peptide P40]	> 1,000 fold	> 1000	> 1,000 fold	No Act	> 1000				> 1000	> 1000		no agonist activity; also recorded: No Act	> 1000	no agonist activity; also recorded: No Act					
[Pro^3,Lys^34]PACAP38 [Peptide P25]	100–300 fold	107 ± 4	11–40 fold	Ag (1 µM, 60)	7.24 ± 0.42		6–15 fold	7-to-15 fold	19.4 ± 1.2	252 ± 13	1.2–65.2 fold		204 ± 9			Ag (1 µM, 60) % max			
[N-Ac-His^1,Ala^16,17,D-Lys^38]PACAP38 [Peptide P28]	4–5 fold	0.32 ± 0.02	3–20 fold		7.08 ± 0.71		6–15 fold	34 fold	0.09 ± 0.01	3.02 ± 0.1			0.95 ± 0.12				same affinity		
[Iaa^1,D-Ser^2,Ala^22]PACAP38 [Peptide P48]	100–300 fold	295 ± 16	180-to-620 fold		501 ± 27		16–50 fold	> 1,000 fold	2.19 ± 0.17	> 1000			83 ± 9						
[Iaa^1,D-Tyr^2,Ala^22]PACAP38 [Peptide P49]	> 350 fold	200 ± 16	180-to-620 fold	Ag (1 µM, 54)	832 ± 63		2-to-5 fold	2–5 fold	98 ± 2	501 ± 36	1.2–65.2 fold		389 ± 33		2–9 fold	Ag (1 µM, 54) % max			
[Aib^16,Ala^17,Lys^34]PACAP38 [Peptide P30]	10–30 fold	2.95 ± 0.07	3–20 fold		3.24 ± 0.24		6–15 fold	7-to-15 fold	0.25 ± 0.02	3.8 ± 0.18			1.38 ± 0.21						
[Sar^3]PACAP38 [Peptide P19]	100–300 fold	214 ± 13	100–500 fold	Ag (1 µM, 53)	891 ± 49	1.2- to 64 fold	2-to-5 fold	12–140 fold	96 ± 6	> 1000			182 ± 23			Ag (1 µM, 53) % max			
[Aib^2,Lys(palmitoyl)^38]PACAP38 [Peptide P14]	11–30 fold	13.2 ± 0.2	11–40 fold	pAg (62)	6.68 ± 0.28		16–50 fold and 15-to-666 fold	7.4 fold	0.45 ± 0.02	3.31 ± 0.2		partial agonists; also recorded: pAg (80)	9.12 ± 0.56					pAg (62) % max	pAg (80) % max

“And” between values parts separate entries of the source, which are not always exact repeats. Equal entries are not always repeated. “Also recorded” adds a separate entry of the source.
